Experimental data as given in patent US9216984B2, “3-[4-(7H-pyrrolo[2,3-D]pyrimidin-4-yl)-1H-pyrazol-1-yl]octane—or heptane-nitrile as JAK inhibitors” (Incyte Corporation, priority 2009, dated 2015).

The chains behind the UniProt entries cited, without tags or fusion partners. Residues count along the entry.
UniProt O60674, 828-1132: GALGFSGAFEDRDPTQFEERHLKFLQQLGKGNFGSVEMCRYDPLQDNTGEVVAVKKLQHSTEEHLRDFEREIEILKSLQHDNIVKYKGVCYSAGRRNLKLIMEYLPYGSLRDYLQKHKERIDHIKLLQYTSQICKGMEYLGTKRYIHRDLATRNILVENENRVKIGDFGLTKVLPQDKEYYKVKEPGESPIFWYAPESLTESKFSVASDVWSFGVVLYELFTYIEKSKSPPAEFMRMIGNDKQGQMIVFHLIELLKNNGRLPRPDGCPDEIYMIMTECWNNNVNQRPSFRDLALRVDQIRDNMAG

What was measured:
[1] = molecular target: human JAK1 (a.a. 837-1142) (Homo sapiens, UniProt P23458); assay: In vitro JAK kinase assay (HTRF, phosphorylation of biotinylated peptide); type: biochemical; conditions: at Km ATP (90 μM ATP for Jak1)
Procedure: (§1) The compounds of the invention were tested for inhibitory activity of JAK targets according to the following in vitro assay described in Park et al., Analytical Biochemistry 1999, 269, 94-104. The catalytic domains of human JAK1 (a.a. 837-1142), JAK2 (a.a. 828-1132) and JAK3 (a.a. 781-1124) with an N-terminal His tag were expressed using baculovirus in insect cells and purified. The catalytic activity of JAK1, JAK2 or JAK3 was assayed by measuring the phosphorylation of a biotinylated peptide. The phosphorylated peptide was detected by homogenous time resolved fluorescence (HTRF). IC50 was measured for each kinase in the 40 μL reactions that contain the enzyme, ATP and 500 nM peptide in 50 mM Tris (pH 7.8) buffer with 100 mM NaCl, 5 mM DTT, and 0.1 mg/mL (0.01%) BSA. The ATP concentration in the reactions was 90 μM for Jak1, 30 μM for Jak2 and 3 μM for Jak3. Reactions were carried out at room temperature for 1 hr and then stopped with 20 μL 45 mM EDTA, 300 nM SA-APC, 6 nM Eu-Py20 in assay buffer (Perkin Elmer, Boston, Mass.). Binding to the Europium labeled antibody took place for 40 minutes and HTRF signal was measured on a Fusion plate reader (Perkin Elmer, Boston, Mass.).

[2] = molecular target: human JAK2 (a.a. 828-1132) (Homo sapiens (Human), UniProt O60674); assay: as above; type: biochemical
Procedure: as §1

[3] = at Km ATP (30 μM ATP for Jak2), read-out: JAK2 IC50 (nM) at Km ATP

| IC50 [1] [nM] | IC50 [2, 3] [nM] | IC50 ([2]; read-out: IC50 value for JAK2) [nM] | Compound |
| --- | --- | --- | --- |
| 3.9 | 2.2 | – | CCCCCC(CC#N)n1cc(-c2ncnc3[nH]ccc23)cn1 (single isomer, unassigned) [Example 1, first peak (free base), 3-[4-(7H-pyrrolo[2,3-d]pyrimidin-4-yl)-1H-pyrazol-1-yl]octanenitrile] |
| 0.34 | 0.26 | < 10 | CCCCCC(CC#N)n1cc(-c2ncnc3[nH]ccc23)cn1 (single isomer, unassigned) [Example 1, second peak (free base), 3-[4-(7H-pyrrolo[2,3-d]pyrimidin-4-yl)-1H-pyrazol-1-yl]octanenitrile] |
| 0.63 | 0.29 | – | CCCCCC(CC#N)n1cc(-c2ncnc3[nH]ccc23)cn1.O=P(O)(O)O (single isomer, unassigned) [Example 1, second peak (phosphate salt), 3-[4-(7H-pyrrolo[2,3-d]pyrimidin-4-yl)-1H-pyrazol-1-yl]octanenitrile phosphoric acid salt] |

Read-outs that look alike come from different tables or passages of the source.
